Target: BRAF (Homo sapiens, UniProt P15056)
Assay: ELISA kinase assay, phospho-MEK1 readout
Type: biochemical

Chains of the proteins cited; added tags and fusions are not shown.
UniProt P15056, whole entry: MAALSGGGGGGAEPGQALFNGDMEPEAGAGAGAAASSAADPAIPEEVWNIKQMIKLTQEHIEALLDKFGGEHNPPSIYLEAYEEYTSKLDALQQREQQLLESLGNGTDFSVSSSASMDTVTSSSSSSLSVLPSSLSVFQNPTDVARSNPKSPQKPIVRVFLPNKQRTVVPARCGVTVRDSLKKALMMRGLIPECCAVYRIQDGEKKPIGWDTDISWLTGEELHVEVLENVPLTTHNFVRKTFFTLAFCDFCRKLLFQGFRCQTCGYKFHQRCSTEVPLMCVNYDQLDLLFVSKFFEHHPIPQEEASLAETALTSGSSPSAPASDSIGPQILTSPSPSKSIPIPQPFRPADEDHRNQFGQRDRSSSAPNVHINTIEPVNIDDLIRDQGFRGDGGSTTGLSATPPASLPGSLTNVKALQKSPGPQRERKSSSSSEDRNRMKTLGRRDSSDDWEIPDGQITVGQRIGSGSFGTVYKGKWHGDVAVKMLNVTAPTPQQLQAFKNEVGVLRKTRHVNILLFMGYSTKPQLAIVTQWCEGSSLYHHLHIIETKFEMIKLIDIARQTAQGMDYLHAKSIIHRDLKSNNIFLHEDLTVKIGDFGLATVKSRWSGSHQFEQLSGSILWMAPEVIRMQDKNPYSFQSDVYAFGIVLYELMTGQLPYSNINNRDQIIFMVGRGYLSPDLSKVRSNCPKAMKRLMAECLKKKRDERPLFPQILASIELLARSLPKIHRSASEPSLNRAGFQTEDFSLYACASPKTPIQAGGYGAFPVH

CN(C)CCOc1ccc(-c2nc(-c3ccncc3)c(-c3ccc4c(c3)CC/C4=N\O)[nH]2)cc1 [SB-590885]
IC50: 0.11 nM

From article PMC6504641 (Chembiochem : a European journal of chemical biology, 2018)
